Some results are limits rather than exact numbers.

The experiment concerns the target recombinant Sec61β lacking the tail-anchor region, immobilized. The experiment can be described thus: pull-down; recombinant Sec61β with (+TA) or without (−TA) tail-anchor immobilised; [35S]-labelled wheat-germ translation product; processed as for SGTA; Triton X-100 sensitive binding read by phosphorimaging.

As for “BAG6 (isoform 2), full length (from UniProt P46379-2 1-1126) (natural protein)”, the signal as percent of that recovered with Sec61β+TA was under 3%.

The values are drawn from PMC3606182.
